What was measured:
hERG = hERG (Homo sapiens, UniProt Q12809); conditions: cited from earlier work
[1] = dose related; cited from earlier work
IKr channel (hERG) = IKr channel (hERG) (Homo sapiens, UniProt Q12809)
IKr = IKr (Homo sapiens, UniProt Q12809); conditions: read-out: IKr IC50 (Doherty et al); literature; cited from earlier work

Protein sequences, listed by entry. Tags and fused reporters are not part of them. Lines headed by an entry give the natural chain unless they say otherwise; changes in a name come on top.
UniProt Q12809: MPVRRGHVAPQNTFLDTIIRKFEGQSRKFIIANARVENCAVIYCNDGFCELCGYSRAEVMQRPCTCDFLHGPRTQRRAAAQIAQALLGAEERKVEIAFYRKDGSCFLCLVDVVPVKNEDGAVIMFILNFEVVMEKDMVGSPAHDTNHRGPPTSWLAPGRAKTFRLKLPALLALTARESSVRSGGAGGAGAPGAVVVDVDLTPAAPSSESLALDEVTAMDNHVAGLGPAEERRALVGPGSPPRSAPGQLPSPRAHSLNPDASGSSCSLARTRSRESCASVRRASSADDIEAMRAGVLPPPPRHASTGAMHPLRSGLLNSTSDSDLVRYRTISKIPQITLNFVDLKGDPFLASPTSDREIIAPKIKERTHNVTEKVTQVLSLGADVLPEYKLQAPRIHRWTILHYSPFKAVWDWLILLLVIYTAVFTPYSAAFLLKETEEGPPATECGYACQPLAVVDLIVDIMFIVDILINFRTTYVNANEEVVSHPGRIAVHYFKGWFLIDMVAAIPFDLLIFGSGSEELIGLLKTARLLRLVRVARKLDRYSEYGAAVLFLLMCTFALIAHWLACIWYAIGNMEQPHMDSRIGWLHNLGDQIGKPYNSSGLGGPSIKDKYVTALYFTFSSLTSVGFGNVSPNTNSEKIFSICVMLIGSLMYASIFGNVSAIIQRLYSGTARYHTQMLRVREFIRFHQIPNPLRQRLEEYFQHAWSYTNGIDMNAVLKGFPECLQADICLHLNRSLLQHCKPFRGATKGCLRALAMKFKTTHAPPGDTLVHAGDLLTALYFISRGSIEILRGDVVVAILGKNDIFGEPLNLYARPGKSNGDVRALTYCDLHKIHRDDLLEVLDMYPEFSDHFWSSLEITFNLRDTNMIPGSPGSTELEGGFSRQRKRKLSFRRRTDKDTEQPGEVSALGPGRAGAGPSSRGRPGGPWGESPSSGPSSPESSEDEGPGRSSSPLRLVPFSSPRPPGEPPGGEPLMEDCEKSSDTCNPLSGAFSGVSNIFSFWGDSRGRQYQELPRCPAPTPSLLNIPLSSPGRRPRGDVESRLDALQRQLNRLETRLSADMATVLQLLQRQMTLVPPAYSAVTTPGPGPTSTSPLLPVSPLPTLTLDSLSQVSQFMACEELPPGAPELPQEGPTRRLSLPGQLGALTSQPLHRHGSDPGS

SMILES: CN(CCOc1ccc(NS(C)(=O)=O)cc1)CCc1ccc(NS(C)(=O)=O)cc1 [Dofetilide]
- hERG blocker potency (in words) (hERG): high potency hERG blocker
- incidence of TdP [1]: 0.3-10.5%

SMILES: CC(C)COCC(CN(Cc1ccccc1)c1ccccc1)N1CCCC1 (centres unmarked) [Bepridil]
- EC50 (hERG; read-out: hERG inhibitory EC50, literature): 550 nM

SMILES: Cc1cn(-c2cc(NC(=O)c3ccc(C)c(Nc4nccc(-c5cccnc5)n4)c3)cc(C(F)(F)F)c2)cn1 [Nilotinib]
- voltage dependency of the tail current inhibition (in words) (IKr channel (hERG)): not voltage dependent
- IC50 (IKr): 700 nM
